Assay results taken from patent US5981483A, “Compositions comprising modulators of cytokines of the TGF-β superfamily” (Mount Sinai Hospital Corporation, priority 1997, dated 1999).
Values belong to the compound of their own block, whether it stands above or below them.

Key:
[1] = target: T1, BMP-2 (Homo sapiens, UniProt P12643); test: BIAcore surface plasmon resonance, binding to immobilized BMP-2; conditions: for Competition of fetuin-BMP-2 binding: co-injected with fetuin, data not shown
T1 construct: Genetics Institute, Cambridge, Mass; (gift)
T1 sequence (P12643 283-396): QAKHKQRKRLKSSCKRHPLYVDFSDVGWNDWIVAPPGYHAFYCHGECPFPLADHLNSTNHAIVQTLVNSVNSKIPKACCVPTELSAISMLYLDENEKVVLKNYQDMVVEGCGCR

[2] = test system: Mv1Lu cells; test: 3H-Thymidine incorporation in Mv1Lu cells: proliferation / growth; assay type: cell-based, mink; conditions: read-out: IC50, inhibition of Mv1Lu cell growth
Method: Mv1Lu cells were seeded at 20,000 cells/well in a 96 well plate containing 0.2% FCS in α-MEM and incubated with the indicated concentrations of proteins for 18 hr. The cells were then pulsed with 8 μCi/ml methyl-^3 H-thymidine (NEN, Boston, Mass.) for 6 hr. Cells were trypsinized, harvested onto filtermats and counted in a β-Counter. Percent neutralization is defined as incorporation in the presence of 12 pM TGF-β1 alone set at 0%, and incorporation without additions as 100%. The difference in ^3 H-thymidine incorporation between 0% and 100% was 7.5 fold. Each point in FIG. 1 and FIG. 12 represents the mean of duplicate determinations, and the results are representative of three experiments. […] Before use, bovine thyroglobulin was spun twice in a centricon (M.W. cutoff of 10,000 Da) micro-concentrator (Amicon, Beverly, Mass.) to remove any excess Iodine and T3/T4 thyroid hormones.

[3] = test system: rat bone marrow stromal cells; test: Dexamethasone-treated rat bone marrow stromal cell cultures (proliferation, mineralization, TGF-β levels); assay type: cell-based; conditions: data not shown
Method: The methods used in the studies described in this example and illustrated in FIGS. 16 and 17 are as follows. Femoral bones were removed under aseptic conditions from adult male Wistar rats (120 g), cleaned of adherent soft tissues, and washed extensively in antibiotics. The distal ends were removed and the marrow contents were flushed out with 10 ml of culture medium. The cells were dispersed by repeated passage through a 20 gauge needle and incubated in alpha-MEM supplemented with 15% fetal bovine serum, ascorbic acid (50 μg/ml), antibiotics (penicillin G 100 μg/ml, gentamicin 50 μg/ml, fungizone 0.3 μg/ml) and 10 mM β-glycerophosphate. […] Following 6 days of culture at 37° C. in a humidified atmosphere containing 5% CO2 in air, the cells were re-plated at a density of 1×10^2 cell/mm^2 in 96 multi-well plates (Falcon 3047), and grown for another 12-14 days. At the end of culture, the cells were fixed and stained for calcium with alizarin red-s for quantification of bone nodule area (reported as mineralized area (mm^2)/well). […] TGF-β in culture supernatants taken 4 days prior to scoring mineralization were measured with and without heat activation (80° C. for 10 min) using the Mink cells as the indicator cell line as described in FIG. 12. […]

Competition of fetuin-BMP-2 binding [1]: to a much lesser extent
binding to immobilized BMP-2 (in words) ([1]; listed as reduced and alkylated THR1b peptide): lack of binding
Compound: CC[C@H](C)[C@H](NC(=O)[C@H](CC(=O)O)NC(=O)[C@@H](N)CSCC(N)=O)C(=O)N[C@@H](Cc1c[nH]cn1)C(=O)N[C@H](C(=O)N[C@@H](CC(C)C)C(=O)N[C@@H](CCCCN)C(=O)N[C@@H](CCC(N)=O)C(=O)N[C@@H](CC(=O)O)C(=O)NCC(=O)N[C@@H](CCC(N)=O)C(=O)N[C@@H](Cc1ccccc1)C(=O)N[C@@H](CO)C(=O)N[C@H](C(=O)N[C@@H](CC(C)C)C(=O)N[C@@H](Cc1ccccc1)C(=O)N[C@H](C(=O)N[C@@H](CCCCN)C(=O)N[C@@H](CSCC(N)=O)C(=O)O)[C@@H](C)O)C(C)C)C(C)C [TRH1b (fetuin) (reduced & alkylated)]

Saturation of binding to immobilized BMP-2 ([1]; 5300 R.U. BMP-2 immobilized, FIG. 9): approximately 550 R.U.
kass ([1]; Table 1, ligand BMP-2): 1600 ± 500 M⁻¹ s⁻¹
Competition of fetuin-BMP-2 binding ([1]; listed as cyclized TRH1b peptide): observed
Compound: CC[C@H](C)[C@@H]1NC(=O)[C@H](CC(=O)O)NC(=O)[C@@H](N)CSSC[C@@H](C(=O)O)NC(=O)[C@H](CCCCN)NC(=O)[C@H]([C@@H](C)O)NC(=O)[C@H](Cc2ccccc2)NC(=O)[C@H](CC(C)C)NC(=O)[C@H](C(C)C)NC(=O)[C@H](CO)NC(=O)[C@H](Cc2ccccc2)NC(=O)[C@H](CCC(N)=O)NC(=O)CNC(=O)[C@H](CC(=O)O)NC(=O)[C@H](CCC(N)=O)NC(=O)[C@H](CCCCN)NC(=O)[C@H](CC(C)C)NC(=O)[C@H](C(C)C)NC(=O)[C@H](Cc2c[nH]cn2)NC1=O [TRH1b (fetuin)]

Compound: BMP-2: recombinant human BMP-2 (Genetics Institute), TGF-β superfamily cytokine
IC50 [2]: 20 nM
osteogenesis in the cultures [3]: induced osteogenesis
